Experimental data as given in patent US11564394B2, “Distorted gold (I)-phosphine complexes and methods for use as antifungal agents” (University of Kentucky Research Foundation, priority 2019, dated 2023).

How the values were obtained:
murine red blood cells = conditions: murine RBCs; at 3.9 mg/mL (so in the source); 30 min at 37° C.
[1] = tested on: murine and human red blood cells (RBCs); conditions: at 7.8 μg/mL
Method: The RBCs were resuspended in PBS to achieve a cell concentration of on the order of 10^7 cells/mL. Compounds were dissolved at concentration of 3.14 mg/mL (200×) in DMSO. Serial double dilutions were made in DMSO. A 1:100 dilution of compound in PBS was added to 100 of RBCs in a 96-well plate (total volume of 200 μL). Compounds were tested in the range of 0.06-15.6 μg/mL in quadruplicate with 0.5% DMSO and ˜5×10^6 RBCs per tube. The RBCs were also treated with 1% Triton-X® (positive control) and PBS (negative control). The RBCs were treated for 30 min at 37° C. and the absorbance was read at 595 nm. Hemolysis is visually observed by a decrease in optical density of the wells (turbid, dark red to transparent pink). Percent hemolysis (FIG. 5A-B) was calculated using this equation after subtraction of the background absorbance ([…]): […]

| Substance | hemolysis (murine red blood cells) [%] | hemolytic activity [1] | survival (mice; mice, dose of 8 mg/kg) [%] | survival (mice; mouse, in vivo, 2 mg/kg) [%] |
| --- | --- | --- | --- | --- |
| bis-[1,2-bis[(2S,5S)-2,5-dimethylphospholano]benzene]gold(I) [Compound 4] | 13 | displayed hemolytic activity | 83 | 100 |
| bis-[1,2-bis[(2R,5R)-2,5-dimethylfphospholano]benzene]gold(1) [Compound 6] | 60 | displayed hemolytic activity | 67 | 100 |

Like-named read-outs stand apart in the source and are kept apart here.
